This assay concerns the target T1, OTULIN (OTU deubiquitinase with linear linkage specificity, FAM105B), His-tagged, biotin-labelled (human, biotin (label; sites not stated)).
T1 construct: OTULIN (FAM105B), cDNA in pET28a; also called HIS-OTULIN; source: E. coli BL21 (DE3), purified (His-tag Purification Resin), labelled with biotin; not shown: His6, N-terminal, kept
The assay can be described thus: peptide or protein array; HuProt human proteome microarray; 5 ug/5 ml biotin-labelled LUBAC or OTULIN in solution, 1 h at room temperature; Cy5-streptavidin, scanned at 635 nm; BSA as negative control; hits: Z-score >= 3 and I_(Mean_Ratio) >= 1.4. Particulars: both partners purified.

The source of these data is paper PMC8274477 (Frontiers in Cell and Developmental Biology, 2021).

B1: FAM103A1 (natural protein, human, UniProt Q9BTL3 1-118, looked up)
chain: MTDTAEAVPKFEEMFASRFTENDKEYQEYLKRPPESPPIVEEWNSRAGGNQRNRGNRLQDNRQFRGRDNRWGWPSDNRSNQWHGRSWGNNYPQHRQEPYYPQQYGHYGYNQRPPYGYY
notes: FAM103A1; protein on the human proteome microarray; source: spotted on the HuProt human proteome microarray
For the molecule B1, the binding result is on record as “binds”.
